According to patent EP4847524A2, “FATTY ACID CONJUGATED CYCLIC PEPTIDES” (dated 2026):

Columns and labels:
[1] = Peptide pharmacokinetics, rat study (IV and SC)
Protocol: Pharmacokinetics of the test peptides were evaluated in vivo as described herein. Male Sprague Dawley rats (300-450 g), male Beagle dogs (5-10 kg) and male cynomolgus monkeys (2-4 kg) were used in the pharmacokinetics (PK) study. All animal procedures were approved by the Institutional Animal Care and Use Committee at the Test Facility.
For intravenous (IV) dosing, compounds were administered by intravenous bolus injection via the jugular vein cannula (JVC), at 0.1 mg/kg or 0.3 mg/kg in 0.01 M phosphate (pH 7.4, 1 mg/mL). For subcutaneous (SC) dosing, compounds were administered in the space over the dorsal region, at 3 mg/kg in 0.1M phosphate (pH 7.4, 0.6 mg/mL).
Serial Blood samples were collected via the JVC at 0.083- (5 minutes), 0.25 (15 minutes), 1, 4, 8, 24, and 48-hours post-dose for IV and 2, 6, 24, 48, 120, 144, and 168-hours post-dose for SC administration.
Blood samples were collected into tubes with K2EDTA. Tubes were stored on wet ice until processed to plasma by centrifugation (2,200 x g at nominal 4°C for 10 minutes) within 60 minutes of collection. Plasma samples were transferred into individual uniquely labeled matrix tubes and stored at nominal -80°C until analysis by liquid chromatography tandem-mass spectrometry (LC-MS/MS).
The plasma samples were prepared by solid phase extraction (SPE) using a Waters PRiME HLB Microelution plate. The SPE plate was conditioned using water:methanol (50:50, v/v) and 0.5% tween 80 in water. After pretreated samples were loaded, wells were washed with 5% methanol in water and 0.1% TFA in water:acetonitrile (80:20, v/v). Wells were eluted with 0.1% formic acid, 0.5% 2,2,2-trifluoroethanol in water:acetonitrile (20:80, v/v) followed by a dilution with 0.1% formic acid, 0.1% tween 80 in water for analysis by LC-MS/MS. The analyte and internal standard (IS) were separated by reversed-phase chromatography using a Shimadzu Nexera X2 UHPLC system and Phenomenex bioZen Peptide PS-C18 50x2.1-mm, 3µm column. The analyte and IS were detected using an Applied Biosystems Sciex API 6500 triple quadrupole mass spectrometer. The mass spectrometer was equipped with an electrospray ionization source operated in the positive-ion mode. The analyte and internal standard were monitored in the multiple-reaction-monitoring scan mode.
Noncompartmental pharmacokinetic parameters were calculated using Phoenix® WinNonlin® software (Version 8.3; Linear Up Log Down Interpolation Calculation Method; Certara L.P.).

[2] = system: adrenocorticotropin hormone (ACTH); experiment: ACTH reduction in adrenalectomized rats, single dose screening; settings: for percentage ACTH reduction versus vehicle (normalized to t=0): single dose 350nmol/kg subcutaneous, mean (SEM)
Text: Male, Sprague Dawley rats (226-250g/ 55-58 days old) underwent adrenalectomy surgery at Charles River Laboratories prior to shipment. Once delivered, postoperative care was provided by facility personnel. Rats (n=9-10 per group) were maintained single-housed with a 12:12 light/dark cycle. To compensate for the removal of adrenal mineralocorticoids and promote weight maintenance, they were supplemented with 0.9% NaCl and 1% sucrose in their drinking water. Additional pellets, medium high fat/sweet (Research Diets) were provided daily on the cage floor in addition to regular rat chow. Rats were allowed to recover and habituate for a week. Cage change occurred at least two days prior to the start of the experiment and again after one week if required for longer experiments. Water changes occurred every 3-4 days after experiments to avoid additional stress.
All experiments were conducted in the morning, to avoid circadian differences in adrenocorticotropic hormone (ACTH). Prior to collection of a whole blood sample via the tail vein, experimental animals were placed in a rat warmer 15-20 minutes prior to the designated time points. The animals were then placed in a rat restrainer and a 24-gauge catheter was placed in the tail vein. The blood (0.15-0.2mL/ sample) was collected into a 600µL Sarstedt tube that contained 1.2-2.0 mg EDTA-K3/mL. After baseline blood collection, rats were subcutaneously injected with freshly made test article solution. Blood was collected once a day for up to 1 week for screening experiments or up to 3 weeks for the dose response-repeat dose experiments. No more than 10% of blood volume for survival bleeds were taken during any two-week period. Screening experiment timepoints were: baseline-dose, 24 hours, 48 hours and 72 hours; while dose response-repeat dose experiment timepoints were: baseline-dose 1 hour, 24 hours, 48 hours-dose 2, 72 hours, 96 hours-dose 3, 120 hours, 144 hours, and 168 hours.
The whole blood was centrifuged for 3 minutes at 10,000rpm. Approximately 75-150µL of plasma was extracted, placed into an appropriately labeled micro test tube and frozen on dry ice. The plasma was stored at -80°C until time of analysis, performed with a Milliplex MAP kit for Rat Stress Hormone - ACTH (Cat. #RSHMAG-69K). Plates were run with technical duplicates for samples from screening experiments or technical triplicates for samples from the dose response-repeat dose experiments.
The mean value is given for each peptide/dose together with the standard error of mean (SEM). N represents the number of animals per peptide. For example, peptide 101, after dosing at 350nmol/kg, has a 68.4%) (±3.8) reduction in ACTH at 24 hours and a 62.2% (±5.1) reduction of ACTH at 48 hours.

- IV CL ([1]; IV dose 0.1 mg/kg): 2.7 mL/h/kg
- IV Vd ([1]; IV dose 0.1 mg/kg): 0.078 L/kg
- IV t1/2 ([1]; IV dose 0.1 mg/kg): 21.5 h
- SC AUC ([1]; SC Dose 3 mg/kg): 708 µg·h/mL
- SC Cmax ([1]; SC Dose 3 mg/kg): 14700 ng/mL
- SC Tmax ([1]; SC Dose 3 mg/kg): 24 h
- SC t1/2 ([1]; SC Dose 3 mg/kg): 20.0 h
- SC F ([1]; SC Dose 3 mg/kg, IV dose 0.1 mg/kg): 79%
Substance: Ac-Asp-Leu-Thr-D-Phe-His-Leu-Leu-Arg-Glu-Val-Leu-Glu-Nle-K*-Arg-Glu-Glu-Gln-cVal-Ala-Gln-E#-Ala-Glu-K#-Asn-Arg-Lys-Leu-Nle-Glu-cVal-Ala-CONH2
- 24hr % ACTH reduction Mean ([2]; 24 hours after single subcutaneous dose 350 nmol/kg, versus vehicle (normalized to t=0), adrenalectomized rats): -68.4%
- 48hr % ACTH reduction Mean ([2]; 48 hours after single subcutaneous dose 350 nmol/kg, versus vehicle (normalized to t=0), adrenalectomized rats): -62.2%
- percentage ACTH reduction versus vehicle (normalized to t=0) ([2]; 24 hours): 68.4%
- percentage ACTH reduction versus vehicle (normalized to t=0) ([2]; 48 hours): 62.2%
